Patent publication US9132135B2, “Method of treating organophosphorous poisoning” (dated 2015)

Columns and labels:
[1] = test system: brain neurons of guinea pigs; test: Fluoro-Jade B histopathology of hippocampus, pyriform cortex and amygdala; settings: galantamine 8 mg/kg or atropine 10 mg/kg, no soman
[2] = test system: guinea pigs; test: Acute toxicity of the drugs by themselves in guinea pigs (side effects, survival, weight gain)
[3] = test system: guinea pigs; test: Open-field arena: locomotor activity and stereotypy
[4] = test system: blood and brain AChE; settings: in vivo; cited from earlier work
[5] = huperzine-A 0.3 mg/kg by itself

Molecule	brain damage / FJ-B-positive neurons 24 hours after i.m. injection of drug alone [1]	rate of weight gain within 1 week after single i.m. injection ([2]; drug alone: galantamine 8 mg/kg, atropine 10 mg/kg, huperzine 300 μg/kg)	side effects ([2]; huperzine doses ≧300 μg/kg)	fatality by day one [2, 5]	fatality from day 2 through day 7 [2, 5]	overall locomotor activity in open field ([3]; galantamine 8 mg/kg or huperzine 300 μg/kg i.m.)	locomotor stereotypy versus saline-treated animals ([3]; huperzine 300 μg/kg i.m., 30 minutes after treatment)	decrease of both blood and brain AChE activity at doses that prevent OP toxicity [4]
CN1[C@@H]2CC[C@H]1C[C@@H](OC(=O)C(CO)c1ccccc1)C2 (some centres unmarked)	no signs of brain damage							
huperzine A		1.72±0.17 % per day	transient, albeit incapacitating side effects	30%	about 65%	adversely increased the locomotor activity	significantly higher	about 70%
